Compound activity as filed in PubChem.
PglD DTNB = blocks C. jejuni PglD acetyltransferase activity; purified PglD enzyme, DTNB colorimetric CoA detection; inhibition, % at 12.5 µM; 360,000 tested, 0.098% active; AID 602405; in the data active means inhibition above about 16%, passing the limit was not always enough; inconclusive means no clear call, values can overlap the other calls
UUG fidelity = modulators of yeast start codon fidelity, primary screen, whole organism, S. cerevisiae, single point, plate reader | AID 602363, 2012 | S. cerevisiae UUG-firefly luciferase reporter, luminescence/redox ratio | activity score, % at 18.7 µM | hit rate 0.13% among 350,000;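 active = replicate mean at a twofold rise or more, about +100% in these data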;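 also: firefly luciferase made from a UUG start codon reports start codon fidelity; reporter light over untreated wells divided by growth signal over untreated wells; some hits fall short of that in this replicate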
esBAF inh = blocks esBAF chromatin remodeling in mouse ES cells; Bmi1-luciferase knock-in reporter, 24 h; 100% = twice the neutral-well signal; reporter increase, % at 12.5 µM; AID 602393; 350,000 tested, 2% active; in the data active means activation above about 40%; inconclusive means no clear call, values can overlap the other calls;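 further: 0% = median of the plate's neutral control wells and 100% = double that signal; a rise in the Bmi1 reporter signal indicates esBAF inhibition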
miR-122 sensor = inhibitors of miR-122 in Huh7 cells; Huh7 miR-122 Renilla luciferase sensor, 48 h; neutral wells = 0, positive control = 100; activation (reporter increase), % at 12.5 µM; AID 602342; 340,000 tested, 0.3% active;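 active means mean replicate activation score at least 90 and every replicate individually at or above 90; inconclusive means only one of the two criteria met; inactive means neither criterion met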;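 further: higher luciferase means less miR-122 activity so hits act as miR-122 inhibitors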
Wnt bcat act = Wnt/beta-catenin pathway activation; Wnt/beta-catenin reporter cell assay, activator, plate reader; 300,000 tested, 1.2% active; AID 743398; activation, % at 9.35 µM; in the data active means activation above about 30%, passing the limit was not always enough; inconclusive means no clear call, values can overlap the other calls;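 further: 0% = neutral control wells and 100% = positive control wells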
MITF TRPM1 HTS = increases MITF-driven TRPM1 promoter luciferase signal | 300,000 tested, 0.75% active | AID 588334 | SK-MEL-5 TRPM1-promoter luciferase, 24 h; % of positive control, neutral wells = 0 | activation, % at 12.5 µM;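 active means mean activation of at least 80% with every replicate also reaching 80%; inconclusive means mean reaches 80% but some replicate falls short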;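 further: 0% = neutral control wells and 100% = parthenolide positive control wells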
Ring1 derepress = de-represses Ring1 in mouse ESCs, confirming esBAF inhibition; mouse ESC E14, Ring1 mRNA RT-qPCR fold change; AID 743176; fold change at 33 µM; 550 tested, under 10 active; shares compounds with esBAF inh;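 active means Ring1 gene expression raised more than 2-fold over untreated cells in both replicates at either tested dose; inconclusive means only one replicate above 2-fold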;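 further: Ring1 transcript normalised to actin housekeeping signal by TaqMan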
Fgf4 repress = represses Fgf4 in mouse ESCs, confirming esBAF inhibition. shares compounds with esBAF inh. mouse ESC E14, Fgf4 mRNA qPCR fold change; hits give low values. Fgf4 expression fold change at 33 µM. 550 tested, 4% active. AID 743177;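 active means Fgf4 expression under 0.8 fold of control in both repeat measurements at one or both tested doses; inconclusive means under 0.8 fold in just a single repeat measurement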;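 further: Fgf4 transcript normalised to actin in duplex TaqMan qPCR; cells exposed to compound for 24 h before lysis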
esBAF Bmi1 qPCR = esBAF inhibition confirmed by Bmi1 de-repression; shares compounds with esBAF inh; mouse ESE14 ES cells, Bmi1 mRNA qPCR fold; hits give high values; fold change at 33 µM; 550 tested, under 10 active;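 active means Bmi1 expression fold change above 6 at either tested concentration, seen in replicate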;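 further: higher fold means more Bmi1 de-repression and stronger esBAF inhibition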
A549 tox SP = A549 cell cytotoxicity; shares compounds with esBAF inh; plate reader; cell viability change % (negative = cytotoxic), % at 25 µM, hits read low; 550 tested, under 10 active; AID 743188; call rule not given here
HepG2 cytotox SP = HepG2 cell cytotoxicity at single point; shares compounds with esBAF inh; plate reader; hits give low values; activity change, negative = inhibition, % at 25 µM; 550 tested, 4% active; in the data active means activity change below about -50%
HEK293 tox SP = HEK293 cell cytotoxicity at single point | shares compounds with esBAF inh | plate reader | activity change, negative = inhibition, % at 25 µM, hits read low | 550 tested, 3% active | AID 743190; in the data active means activity change below about -38%, passing the limit was not always enough
* hit, by the source's call; [ ] = remark or other dose. The list is not random: actives were taken first. Their share in the collection is about 2.8%.

Results for Cn1c2nc3ccccc3c-2nc2ccccc21 ?
PglD DTNB: -2.1; UUG fidelity: 11.9; esBAF inh: 54.1*; miR-122 sensor: 3.2; Wnt bcat act: 38.6*; Ring1 derepress: 1.04; Fgf4 repress: 0.809; esBAF Bmi1 qPCR: 6.44*; A549 tox SP: -9.7; HepG2 cytotox SP: 5.7; HEK293 tox SP: -4.6

What do the screens show for `COc1ccc(-c2cc(C(=O)NCc3cccnc3)no2)cc1OC`?
PglD DTNB: 2.5; UUG fidelity: -23.6; esBAF inh: 10.3; miR-122 sensor: -5.3; MITF TRPM1 HTS: 9.0

How did CC(C)Oc1ccc(F)cc1-c1cc(C(=O)Nc2ccccc2)[nH]n1 do in these assays?
PglD DTNB: 10.1; UUG fidelity: -15.1; esBAF inh: 6.7; miR-122 sensor: -1.8; Wnt bcat act: -3.3

What do the screens show for `COc1ccc(-c2cc(C(=O)Nc3cccnc3)no2)cc1OC`?
PglD DTNB: 1.5; UUG fidelity: -9.5; esBAF inh: 65.0*; miR-122 sensor: -4.2; Wnt bcat act: 29.4; MITF TRPM1 HTS: 86.8*; Ring1 derepress: 1.35; Fgf4 repress: inconclusive; esBAF Bmi1 qPCR: 1.86; A549 tox SP: -3.0; HepG2 cytotox SP: -19.5; HEK293 tox SP: 0.5

What do the screens show for `COc1ccc(F)cc1-c1cc(C(=O)Nc2cccnc2)[nH]n1`?
PglD DTNB: 8.0; UUG fidelity: -6.9; esBAF inh: 56.6*; miR-122 sensor: -6.7; Wnt bcat act: -0.2; Ring1 derepress: 1.15; Fgf4 repress: 1.01; esBAF Bmi1 qPCR: 1.83; A549 tox SP: -8.8; HepG2 cytotox SP: -0.7; HEK293 tox SP: -12.9

How did CCn1c(COc2ccccc2C)nc2ccccc21 do in these assays?
PglD DTNB: -3.0; UUG fidelity: -23.2; esBAF inh: 64.5*; miR-122 sensor: -5.8; MITF TRPM1 HTS: inconclusive; Ring1 derepress: 1.14; Fgf4 repress: 0.938; esBAF Bmi1 qPCR: 1.76; A549 tox SP: -7.4; HepG2 cytotox SP: 1.4; HEK293 tox SP: -13.9

How did CCn1c(COc2ccccc2OC)nc2ccccc21 do in these assays?
PglD DTNB: 2.8; UUG fidelity: -18.0; esBAF inh: inconclusive; miR-122 sensor: -3.4; Wnt bcat act: 2.4; MITF TRPM1 HTS: 38.7

How did C[C@@H]1CN([C@H](C)CO)S(=O)(=O)c2ccc(-c3cccc(C(=O)N(C)C)c3)cc2O[C@H]1CN(C)C(=O)Cc1ccccn1 do in these assays?
PglD DTNB: -2.2; UUG fidelity: -5.5; esBAF inh: 1.1

How did COCC(=O)N(C)C[C@@H]1Oc2ncc(-c3ccc(C)cc3)cc2C(=O)N([C@@H](C)CO)C[C@@H]1C do in these assays?
PglD DTNB: 1.3; UUG fidelity: 0.1; esBAF inh: -2.5; miR-122 sensor: -6.4[16.7 µM]

How did c1ccc(C2Nc3ccccc3Oc3ccccc32)cc1 (centres undefined) do in these assays?
UUG fidelity: -11.1; esBAF inh: -8.2; miR-122 sensor: -2.0; MITF TRPM1 HTS: 2.0

What do the screens show for `c1ccc2c(c1)Nc1cc3ccccc3cc1O2`?
PglD DTNB: 1.6; UUG fidelity: -18.0; esBAF inh: 84.0*; Wnt bcat act: 6.9; MITF TRPM1 HTS: 44.2; Ring1 derepress: 1.27; Fgf4 repress: 0.903; esBAF Bmi1 qPCR: 1.49; A549 tox SP: -1.7; HepG2 cytotox SP: -1.1; HEK293 tox SP: -8.5

Results for O=C(Nc1nccs1)C(=O)c1c[nH]c2ccccc12 ?
PglD DTNB: -5.2; UUG fidelity: -17.9; esBAF inh: 68.1*; miR-122 sensor: 8.2; Wnt bcat act: 59.2*; MITF TRPM1 HTS: inconclusive; Ring1 derepress: 1.08; Fgf4 repress: 0.872; esBAF Bmi1 qPCR: 1.47; A549 tox SP: -9.3; HepG2 cytotox SP: -12.5; HEK293 tox SP: -9.1

How did O=C(Cc1c[nH]c2ccccc12)Nc1nccs1 do in these assays?
PglD DTNB: -5.9; UUG fidelity: -11.0; esBAF inh: 12.8; miR-122 sensor: 3.4; Wnt bcat act: -1.4; MITF TRPM1 HTS: -4.9

How did c1ccc(Oc2cc(-c3ccccc3)ncn2)cc1 do in these assays?
PglD DTNB: -0.8; UUG fidelity: -1.0; esBAF inh: 77.2*; miR-122 sensor: -10.8; Ring1 derepress: 1.28; Fgf4 repress: inconclusive; esBAF Bmi1 qPCR: 1.82; A549 tox SP: -4.8; HepG2 cytotox SP: -15.1; HEK293 tox SP: -1.9

Results for CCc1nc(SCc2ccc(Br)cc2)n[nH]1 ?
PglD DTNB: 5.5; UUG fidelity: -7.1; esBAF inh: 47.1*; miR-122 sensor: 1.5; Wnt bcat act: 18.5; MITF TRPM1 HTS: 62.5; Ring1 derepress: 0.896; Fgf4 repress: 0.954; esBAF Bmi1 qPCR: 1.51; A549 tox SP: -4.5; HepG2 cytotox SP: -19.9; HEK293 tox SP: -9.5

How did CCc1nc(SCc2ccc(Cl)cc2)n[nH]1 do in these assays?
Wnt bcat act: 13.0; MITF TRPM1 HTS: 12.3

What do the screens show for `COc1ccc(NC(=O)N(C)C[C@H]2OCCCC[C@H](C)Oc3ccc(NC(=O)Nc4c(C)noc4C)cc3C(=O)N([C@@H](C)CO)C[C@@H]2C)cc1`?
PglD DTNB: -0.8; UUG fidelity: -0.6; esBAF inh: -2.4; miR-122 sensor: 2.2[16.7 µM]

Results for COc1ccccc1-c1ccc2c(c1)O[C@H](CN(C)C)[C@H](C)CN([C@H](C)CO)S2(=O)=O ?
PglD DTNB: -0.6; UUG fidelity: 17.1; esBAF inh: 1.8; miR-122 sensor: 2.2[16.7 µM]

What do the screens show for `Cc1cccc(Oc2ccc(Cl)cc2N)c1`?
PglD DTNB: -1.2; UUG fidelity: -6.2; esBAF inh: 72.0*; miR-122 sensor: -1.5; Wnt bcat act: 7.4; MITF TRPM1 HTS: 49.1; Ring1 derepress: 1.16; Fgf4 repress: 1.05; esBAF Bmi1 qPCR: 1.46; A549 tox SP: -10.2; HepG2 cytotox SP: -10.6; HEK293 tox SP: -1.0

Results for C[C@@H]1CN([C@H](C)CO)S(=O)(=O)c2ccc(C#C[C@@H](C)O)cc2O[C@@H]1CN(C)C(=O)C1CCC1 ?
PglD DTNB: 4.8; UUG fidelity: 3.2; esBAF inh: 0.4; miR-122 sensor: 6.6[16.7 µM]

Retrieved by structure from the list above, 2 records:
How did CCn1c(COc2ccccc2C)nc2ccccc21 do in these assays?
PglD DTNB: -3.0; UUG fidelity: -23.2; esBAF inh: 64.5*; miR-122 sensor: -5.8; MITF TRPM1 HTS: inconclusive; Ring1 derepress: 1.14; Fgf4 repress: 0.938; esBAF Bmi1 qPCR: 1.76; A549 tox SP: -7.4; HepG2 cytotox SP: 1.4; HEK293 tox SP: -13.9

What do the screens show for `COc1ccc(-c2cc(C(=O)Nc3cccnc3)no2)cc1OC`?
PglD DTNB: 1.5; UUG fidelity: -9.5; esBAF inh: 65.0*; miR-122 sensor: -4.2; Wnt bcat act: 29.4; MITF TRPM1 HTS: 86.8*; Ring1 derepress: 1.35; Fgf4 repress: inconclusive; esBAF Bmi1 qPCR: 1.86; A549 tox SP: -3.0; HepG2 cytotox SP: -19.5; HEK293 tox SP: 0.5
